The entries are a selection whose mix differs from that of the whole data set. Some of these compounds have results that are not shown, active ones among them. Activity calls are given as the source filed them.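 How the source made its calls: active means inhibition reaching at least a set limit at 20 µM in the primary screen (cut at about 59% in these data); inactive means the rest.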
system: glucose-6-phosphate dehydrogenase-6-phosphogluconolactonase (Plasmodium falciparum 3D7); assay: PfG6PD enzyme inhibitors, primary screen, biochemical, fluorescence intensity, uHTS (AID 504690); conditions: PfGluPho enzyme, NADPH resazurin-diaphorase fluorescence; at 20 µM; stronger effect = higher value;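 further: 0% = DMSO wells with substrate and 100% = DMSO wells lacking glucose-6-phosphate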

Row | SMILES | inhibition
1 | COc1ccc(Br)c(C(=O)NCC2(N3CCCCC3)CCCCC2)c1 | inactive: -8.77%
2 | C=C(C)C#CC(O)(C(=O)OC1CCN(C)CC1)c1ccccc1 (stereo unspecified) | inactive: -4.83%
3 | CN(C)c1cccc(C(=O)NCC2(N(C)C)CCCCC2)c1 | inactive: -3.78%
4 | CC(C)Oc1ccc(C(=O)NCC2(N(C)C)CCCCC2)cc1 | inactive: -9.29%
5 | O=C(OCCN1CCCC1)C(O)(c1ccccc1)c1ccccc1 | inactive: 4.3%
6 | O=C(OC1CN2CCC1CC2)C(CO)(c1ccccc1)c1ccccc1 (stereo unspecified) | inactive: -19.6%
7 | COc1cccc(C(=O)NCC2(N3CCCCC3)CCCCC2)c1 | inactive: 5.12%
8 | COc1ccc(Cl)cc1C(=O)NCC1(N(C)C)CCCCC1 | inactive: 1.83%
9 | O=C(NCC1(N2CCCCC2)CCCCC1)c1cccc(Cl)c1 | inactive: -23.7%
10 | CN(C)C1(CNC(=O)c2ccc(Br)cc2)CCCCC1 | inactive: -4.95%
11 | COc1cc(C(=O)NCC2(N(C)C)CCCCC2)c([N+](=O)[O-])cc1OC | inactive: -1.56%
12 | C=CCN1CCN(CCOC(=O)C(O)(c2ccccc2)c2ccccc2)CC1 | inactive: -14.9%
13 | O=C(NCC1(N2CCCCC2)CCCCC1)c1cc(F)c(F)cc1Cl | inactive: 0.44%
14 | CCN1CCCC(OC(=O)C2(O)c3ccccc3C=Cc3ccccc32)C1 (stereo unspecified) | inactive: -2%
15 | Cc1cc(C(=O)NCC2(N3CCCCC3)CCCCC2)ccc1[N+](=O)[O-] | inactive: 9.65%
16 | O=C(NCC1(N2CCCCC2)CCCCC1)c1cccc(Br)c1 | inactive: -11.7%
17 | COc1ccc(C(=O)NCC2(N(C)C)CCCCC2)cc1 | inactive: -3.22%
18 | Cc1ccccc1C(=O)NCC1(N2CCCCC2)CCCCC1 | inactive: 3.84%
19 | CN(C)c1ccc(C(=O)NCC2(N(C)C)CCCCC2)cc1 | inactive: 4.75%
20 | CN(C)C1CCCC1OC(=O)C(O)(c1ccccc1)c1ccccc1 (stereo unspecified) | inactive: 8.24%
21 | CC(C)N1C(=O)CC2(CCN(CCOC(=O)C(O)(c3ccccc3)c3ccccc3)CC2)C1=O | inactive: 5.56%
22 | CCN(CC)CC(C)C(C)OC(=O)C(O)(c1ccccc1)c1ccccc1 (stereo unspecified) | inactive: -0.11%
23 | COc1cc(SC)ccc1C(=O)NCC1(N(C)C)CCCCC1 | inactive: 0.7%
24 | Cc1ccc(C(=O)NCC2(N3CCCCC3)CCCCC2)cc1 | inactive: -19%
25 | O=C(NCC1(N2CCCCC2)CCCCC1)c1cc([N+](=O)[O-])ccc1Cl | inactive: 12.1%
26 | CN1[C@@H]2CC[C@H]1CC(OC(=O)C(O)(c1ccccc1)c1ccccc1)C2 (stereo partly specified) | inactive: -7.96%

Source: PubChem BioAssay AID504690 (Sanford-Burnham Center for Chemical Genomics, 2011)
